This passage reports Ki results from publication PMC9585589 (2022).

Chains of the proteins cited; added tags and fusions are not shown.
UniProt P21554, whole entry: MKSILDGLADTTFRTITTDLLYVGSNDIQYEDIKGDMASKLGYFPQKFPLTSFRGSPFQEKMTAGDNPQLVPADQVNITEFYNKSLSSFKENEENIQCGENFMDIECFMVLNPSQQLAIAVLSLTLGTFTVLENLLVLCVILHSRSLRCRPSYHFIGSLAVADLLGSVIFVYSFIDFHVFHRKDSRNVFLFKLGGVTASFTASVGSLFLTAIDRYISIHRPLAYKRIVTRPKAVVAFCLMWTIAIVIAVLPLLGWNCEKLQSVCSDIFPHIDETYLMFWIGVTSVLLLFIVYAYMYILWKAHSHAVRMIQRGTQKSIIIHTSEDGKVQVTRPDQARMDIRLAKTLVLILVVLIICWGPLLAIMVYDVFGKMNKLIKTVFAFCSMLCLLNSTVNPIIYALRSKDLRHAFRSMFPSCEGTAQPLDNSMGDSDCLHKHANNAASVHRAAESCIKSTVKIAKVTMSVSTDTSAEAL

The test has as its target human CB1 receptor (Homo sapiens, UniProt P21554). Particulars: read-out: Ki (μM, 95% CI).

In general, Ki refers to the equilibrium dissociation constant of an inhibitor or competing ligand from its target.

On to Phillyrin [Compound 17], for which the Ki was 62.8 µM.
